Literature values as cited in PMC8470770, “Characterization of a Primate Blood-Brain Barrier Co-Culture Model Prepared from Primary Brain Endothelial Cells, Pericytes and Astrocytes” (Pharmaceutics, 2021).

Test system: primary triple co-culture monkey BBB model
Conditions: cited from earlier work

maraviroc
mean Papp across the monkey BBB model: 16 ×10⁻⁶ cm/s
